ChEMBL document CHEMBL1817551, “Design of small molecule inhibitors of acetyl-CoA carboxylase 1 and 2 showing reduction of hepatic malonyl-CoA levels in vivo in obese Zucker rats” (Bioorg Med Chem, 2011)

Columns and labels:
[1] = biological target: Acetyl-Coenzyme A carboxylase 2 (Rattus norvegicus, UniProt Q1HEC0); experiment: Inhibition of ACC2 […] preincubated for 15 mins measured after 1.5 hrs using Malachite green reagent method
[2] = biological target: Acetyl-CoA carboxylase 1 (Rattus norvegicus, UniProt P11497); experiment: Inhibition of rat ACC1 assessed as inorganic phosphate generation preincubated for 5 mins measured after 1.5 hrs using Malachite green reagent method

IC50 [1]: 170 nM | IC50 [2]: 230 nM
Compound: O=C(c1c2ccccc2cc2ccccc12)N1CCC(N2CCC[C@@H](C(=O)N3CCOCC3)C2)CC1
